Laboratory results as given in patent US12084485B2 (Intarcia Therapeutics, Inc., priority 2020, dated 2024).
Like-named read-outs stand apart in the source and are kept apart here.

Chains of the proteins cited; added tags and fusions are not shown. Residues count along the entry.
UniProt P32301, 22-463: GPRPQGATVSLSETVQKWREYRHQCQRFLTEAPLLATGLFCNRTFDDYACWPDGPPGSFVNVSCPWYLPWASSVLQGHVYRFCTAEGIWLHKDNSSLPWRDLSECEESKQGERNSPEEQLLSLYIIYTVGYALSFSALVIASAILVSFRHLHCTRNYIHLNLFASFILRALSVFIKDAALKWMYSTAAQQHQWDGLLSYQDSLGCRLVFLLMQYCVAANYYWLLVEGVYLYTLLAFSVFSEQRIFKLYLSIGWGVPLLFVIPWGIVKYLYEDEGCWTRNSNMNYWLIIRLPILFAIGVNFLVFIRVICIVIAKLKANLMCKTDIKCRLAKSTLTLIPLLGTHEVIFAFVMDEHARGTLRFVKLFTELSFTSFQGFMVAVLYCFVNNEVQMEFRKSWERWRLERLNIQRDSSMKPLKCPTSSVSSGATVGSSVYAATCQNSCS
UniProt P43220, 24-463: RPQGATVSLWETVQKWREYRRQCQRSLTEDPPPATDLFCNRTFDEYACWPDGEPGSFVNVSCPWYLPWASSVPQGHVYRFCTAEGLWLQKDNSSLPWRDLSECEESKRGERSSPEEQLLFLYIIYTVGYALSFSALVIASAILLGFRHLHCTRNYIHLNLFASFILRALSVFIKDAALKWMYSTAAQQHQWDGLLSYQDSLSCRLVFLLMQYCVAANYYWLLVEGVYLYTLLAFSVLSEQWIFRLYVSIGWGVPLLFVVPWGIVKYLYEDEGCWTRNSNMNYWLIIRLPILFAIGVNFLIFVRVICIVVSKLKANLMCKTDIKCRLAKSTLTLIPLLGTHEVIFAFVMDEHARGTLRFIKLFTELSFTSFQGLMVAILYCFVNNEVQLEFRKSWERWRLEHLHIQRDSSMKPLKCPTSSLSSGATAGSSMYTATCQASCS

Key:
[1] = cited from earlier work
[2] = biological target: T1, rat GLP-1R (Rattus norvegicus, UniProt P32301); assay: cAMP accumulation assay, CHO-K1 cells expressing rat GLP-1R; type: cell-based
T1 construct: a cDNA fragment encoding the full-length open reading frame of the rat GLP-1R; expressed in transfected cells; host or cells: CHO-K1 (transient, Lipofectamine 2000)

[3] = biological target: T2, human GLP-1R (Homo sapiens, UniProt P43220); assay: cAMP accumulation assay, CHO-K1 cells expressing human GLP-1R; type: cell-based
T2 construct: expressed in transfected cells

[4] = Stability in DMSO or DI water at 37° C. (purity by LC/MS and HPLC); type: physicochemical; details: TFA salt unless indicated otherwise
[5] = Solubility in saline or DI water at room temperature (visual inspection); type: physicochemical; details: as TFA salt unless indicated otherwise
[6] = Intravenous infusion pharmacokinetics in Sprague-Dawley rats; details: rat, in vivo, 1-hour IV infusion, 0.033 mg/kg, male Sprague-Dawley rats
[7] = read-out: Solubility (mg/mL) in DI water
[8] = read-out: Solubility (mg/mL) in saline

Structure (SMILES)	EC50 [2] [pM]	EC50 [3] [pM]	Stability @ 37° C. (% purity) Day 14 ([4]; solute DI H2O) [%]	Stability @ RT (% purity) Day 0 ([4]; solute DI H2O, 1 mg/ml) [%]	Stability @ RT (% purity) Day 14 ([4]; solute DI H2O) [%]	Stability @ RT (% purity) Day 28 ([4]; solute DI H2O) [%]	Stability @ 37° C. (% purity) Day 14 ([4]; solute Saline) [%]	Stability @ RT (% purity) Day 0 ([4]; solute Saline) [%]	Stability @ RT (% purity) Day 14 ([4]; solute Saline) [%]	Stability @ RT (% purity) Day 28 ([4]; solute Saline) [%]	solubility [5, 7] [mg/mL]	solubility [5, 8] [mg/mL]	also measured
CC[C@H](C)[C@H](NC(=O)[C@@H]1CCCN1C(=O)CNC(=O)[C@H](Cc1ccccc1)NC(=O)[C@H](CC(N)=O)NC(=O)[C@H](CC(N)=O)NC(=O)[C@H](CO)NC(=O)[C@H](CO)NC(=O)[C@H](Cc1c[nH]cn1)NC(=O)[C@@H](NC(=O)[C@H](CC(C)C)NC(=O)[C@H](Cc1ccccc1)NC(=O)[C@H](CC(N)=O)NC(=O)[C@H](C)NC(=O)[C@H](CC(C)C)NC(=O)[C@H](CCCNC(=N)N)NC(=O)[C@H](CCC(N)=O)NC(=O)[C@@H](NC(=O)[C@H](C)NC(=O)[C@@H]1CSSC[C@H](NC(=O)[C@@H](N)CCCCN)C(=O)N[C@@H](CC(N)=O)C(=O)N[C@@H]([C@@H](C)O)C(=O)N[C@@H](C)C(=O)N[C@@H]([C@@H](C)O)C(=O)N1)[C@@H](C)O)C(C)C)C(=O)N[C@@H](CC(C)C)C(=O)N1CCC[C@H]1C(=O)N1CCC[C@H]1C(=O)N[C@H](C(=O)N[C@@H](CC(N)=O)C(=O)N[C@H](C(=O)NCC(=O)N[C@@H](CO)C(=O)N[C@@H](CC(N)=O)C(=O)N[C@H](C(=O)N[C@@H](Cc1ccc(O)cc1)C(N)=O)[C@@H](C)O)C(C)C)[C@@H](C)O [pramlintide]													half-life in humans [1]: approximately 48 minutes
CC[C@H](C)[C@H](NC(=O)[C@H](Cc1ccccc1)NC(=O)[C@H](CC(C)C)NC(=O)[C@H](CCCNC(=N)N)NC(=O)[C@H](C)NC(=O)[C@H](C)NC(=O)[C@H](CCC(=O)O)NC(=O)[C@H](CCCCNC(=O)CC[C@H](NC(=O)CC[C@H](NC(=O)COCCOCCNC(=O)CCCCCCCCCCCCCCCCCCC(=O)O)C(=O)O)C(=O)O)NC(=O)[C@H](CCC(=O)O)NC(=O)[C@H](Cc1ccc(O)cc1)NC(=O)[C@H](CCC(N)=O)NC(=O)[C@H](CCCCN)NC(=O)[C@H](CO)NC(=O)[C@@H](NC(=O)[C@H](CC(=O)O)NC(=O)[C@H](CO)NC(=O)[C@@H](NC(=O)[C@H](Cc1ccccc1)NC(=O)[C@@H](NC(=O)CNC(=O)[C@H](CCC(=O)O)NC(=O)C(C)(C)NC(=O)[C@@H](N)Cc1c[nH]cn1)[C@@H](C)O)[C@@H](C)O)[C@@H](C)CC)C(=O)N[C@@H](CO)C(=O)N[C@@H](Cc1c[nH]c2ccccc12)C(=O)N[C@@H](CC(C)C)C(=O)N[C@@H](CCCCN)C(=O)N[C@@H](CC(N)=O)C(=O)NCC(=O)NCC(=O)N1CCC[C@H]1C(=O)N[C@@H](CO)C(=O)N[C@@H](CO)C(=O)NCC(=O)N[C@@H](C)C(=O)N1CCC[C@H]1C(=O)N1CCC[C@H]1C(=O)N1CCC[C@H]1C(=O)N[C@@H](CO)C(N)=O [Compound A86]	2												
CC[C@H](C)[C@H](NC(=O)[C@H](Cc1ccccc1)NC(=O)[C@H](CC(C)C)NC(=O)[C@H](CCCNC(=N)N)NC(=O)[C@H](C)NC(=O)[C@H](C)NC(=O)[C@H](CCC(=O)O)NC(=O)[C@H](CCCCNC(=O)CC[C@H](NC(=O)CC[C@H](NC(=O)COCCOCCNC(=O)CCCCCCCCCCCCCCCCCCC(=O)O)C(=O)O)C(=O)O)NC(=O)[C@H](CCC(=O)O)NC(=O)[C@H](Cc1ccc(O)cc1)NC(=O)[C@H](CCC(N)=O)NC(=O)[C@H](CCCCN)NC(=O)[C@H](CO)NC(=O)[C@@H](NC(=O)[C@H](CC(=O)O)NC(=O)[C@H](CC(N)=O)NC(=O)[C@@H](NC(=O)[C@H](Cc1ccccc1)NC(=O)[C@@H](NC(=O)CNC(=O)[C@H](CCC(=O)O)NC(=O)C(C)(C)NC(=O)[C@@H](N)Cc1c[nH]cn1)[C@@H](C)O)[C@@H](C)O)C(C)C)C(=O)N[C@@H](CO)C(=O)N[C@@H](Cc1c[nH]c2ccccc12)C(=O)N[C@@H](CC(C)C)C(=O)N[C@@H](CCCCN)C(=O)N[C@@H](CC(N)=O)C(=O)NCC(=O)NCC(=O)N1CCC[C@H]1C(=O)N[C@@H](CO)C(=O)N[C@@H](CO)C(=O)NCC(=O)N[C@@H](C)C(=O)N1CCC[C@H]1C(=O)N1CCC[C@H]1C(=O)N1CCC[C@H]1C(=O)N[C@@H](CO)C(N)=O [Compound A88]	2.51	1	97.5	96.9	94.6	93	95	97.2	93.6	92.1	> 81	> 107	
CC[C@H](C)[C@H](NC(=O)[C@H](Cc1ccccc1)NC(=O)[C@H](CC(C)C)NC(=O)[C@H](CCCNC(=N)N)NC(=O)[C@H](C)NC(=O)[C@H](C)NC(=O)[C@H](CCC(=O)O)NC(=O)[C@H](CCCCNC(=O)CC[C@H](NC(=O)CC[C@H](NC(=O)COCCOCCNC(=O)CCCCCCCCCCCCCCCCCCC(=O)O)C(=O)O)C(=O)O)NC(=O)[C@H](CCC(=O)O)NC(=O)[C@H](Cc1ccc(O)cc1)NC(=O)[C@H](CCC(N)=O)NC(=O)[C@H](CCCCN)NC(=O)[C@H](CO)NC(=O)[C@H](CC(C)C)NC(=O)[C@H](CC(=O)O)NC(=O)[C@H](CC(N)=O)NC(=O)[C@@H](NC(=O)[C@H](Cc1ccccc1)NC(=O)[C@@H](NC(=O)CNC(=O)[C@H](CCC(=O)O)NC(=O)C(C)(C)NC(=O)[C@@H](N)Cc1c[nH]cn1)[C@@H](C)O)[C@@H](C)O)C(=O)N[C@@H](CO)C(=O)N[C@@H](Cc1c[nH]c2ccccc12)C(=O)N[C@@H](CC(C)C)C(=O)N[C@@H](CCCCN)C(=O)N[C@@H](CC(N)=O)C(=O)NCC(=O)NCC(=O)N1CCC[C@H]1C(=O)N[C@@H](CO)C(=O)N[C@@H](CO)C(=O)NCC(=O)N[C@@H](C)C(=O)N1CCC[C@H]1C(=O)N1CCC[C@H]1C(=O)N1CCC[C@H]1C(=O)N[C@@H](CO)C(N)=O [Compound A87]	2.51	1	91	96.6	94.4	90.1	83.9	97.5	91.6	89.6	> 88	> 104	
CC[C@H](C)[C@H](NC(=O)[C@H](Cc1ccccc1)NC(=O)[C@H](CC(C)C)NC(=O)[C@H](CCCNC(=N)N)NC(=O)[C@H](C)NC(=O)[C@H](C)NC(=O)[C@H](CCC(=O)O)NC(=O)[C@H](CCCCNC(=O)CC[C@H](NC(=O)CC[C@H](NC(=O)COCCOCCNC(=O)CCCCCCCCCCCCCCCCCCC(=O)O)C(=O)O)C(=O)O)NC(=O)[C@H](CCC(=O)O)NC(=O)[C@H](Cc1ccc(O)cc1)NC(=O)[C@H](CCC(N)=O)NC(=O)[C@H](CCCCN)NC(=O)[C@H](CO)NC(=O)[C@@H](NC(=O)[C@H](CC(=O)O)NC(=O)[C@H](CO)NC(=O)[C@@H](NC(=O)[C@H](Cc1ccccc1)NC(=O)[C@@H](NC(=O)CNC(=O)[C@H](CCC(=O)O)NC(=O)C(C)(C)NC(=O)[C@@H](N)Cc1c[nH]cn1)[C@@H](C)O)[C@@H](C)O)C(C)C)C(=O)N[C@@H](CO)C(=O)N[C@@H](Cc1c[nH]c2ccccc12)C(=O)N[C@@H](CC(C)C)C(=O)N[C@@H](CCCCN)C(=O)N[C@@H](CC(N)=O)C(=O)NCC(=O)NCC(=O)N1CCC[C@H]1C(=O)N[C@@H](CO)C(=O)N[C@@H](CO)C(=O)NCC(=O)N[C@@H](C)C(=O)N1CCC[C@H]1C(=O)N1CCC[C@H]1C(=O)N1CCC[C@H]1C(=O)N[C@@H](CO)C(N)=O [Compound A85]	1.58												
CC[C@H](C)[C@H](NC(=O)[C@H](Cc1ccccc1)NC(=O)[C@H](CC(C)C)NC(=O)[C@H](CCCNC(=N)N)NC(=O)[C@H](C)NC(=O)[C@H](C)NC(=O)[C@H](CCC(=O)O)NC(=O)[C@H](CCCCNC(=O)CC[C@H](NC(=O)CC[C@H](NC(=O)COCCOCCNC(=O)CCCCCCCCCCCCCCCCCCC(=O)O)C(=O)O)C(=O)O)NC(=O)[C@H](CCC(=O)O)NC(=O)[C@H](Cc1ccc(O)cc1)NC(=O)[C@H](CCC(N)=O)NC(=O)[C@H](CCCCN)NC(=O)[C@H](CO)NC(=O)[C@@H](NC(=O)[C@H](CC(=O)O)NC(=O)[C@H](CC(N)=O)NC(=O)[C@@H](NC(=O)[C@H](Cc1ccccc1)NC(=O)[C@@H](NC(=O)CNC(=O)[C@H](CCC(=O)O)NC(=O)C(C)(C)NC(=O)[C@@H](N)Cc1c[nH]cn1)[C@@H](C)O)[C@@H](C)O)[C@@H](C)CC)C(=O)N[C@@H](CO)C(=O)N[C@@H](Cc1c[nH]c2ccccc12)C(=O)N[C@@H](CC(C)C)C(=O)N[C@@H](CCCCN)C(=O)N[C@@H](CC(N)=O)C(=O)NCC(=O)NCC(=O)N1CCC[C@H]1C(=O)N[C@@H](CO)C(=O)N[C@@H](CO)C(=O)NCC(=O)N[C@@H](C)C(=O)N1CCC[C@H]1C(=O)N1CCC[C@H]1C(=O)N1CCC[C@H]1C(=O)N[C@@H](CO)C(N)=O [Compound A89]	2												clearance [6]: 0.102 mL/min/kg; half-life ([6]; read-out: T1/2 (IV) (converted)): 13.5 h
